One assay addresses Carbonic anhydrase 7 (Homo sapiens, UniProt P43166).
Assay [1] concerns the target Carbonic anhydrase 5A, mitochondrial (Homo sapiens, UniProt P35218).

Protein sequences, listed by entry. Tags and fused reporters are not part of them. Lines headed by an entry give the natural chain unless they say otherwise; changes in a name come on top.
UniProt P43166: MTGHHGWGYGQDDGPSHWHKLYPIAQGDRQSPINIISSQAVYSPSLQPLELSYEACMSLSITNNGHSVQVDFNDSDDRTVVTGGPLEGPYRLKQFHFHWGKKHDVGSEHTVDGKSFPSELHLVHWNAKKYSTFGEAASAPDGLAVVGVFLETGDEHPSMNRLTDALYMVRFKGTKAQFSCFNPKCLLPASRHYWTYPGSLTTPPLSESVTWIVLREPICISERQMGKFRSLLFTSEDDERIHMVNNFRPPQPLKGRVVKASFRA
UniProt P35218: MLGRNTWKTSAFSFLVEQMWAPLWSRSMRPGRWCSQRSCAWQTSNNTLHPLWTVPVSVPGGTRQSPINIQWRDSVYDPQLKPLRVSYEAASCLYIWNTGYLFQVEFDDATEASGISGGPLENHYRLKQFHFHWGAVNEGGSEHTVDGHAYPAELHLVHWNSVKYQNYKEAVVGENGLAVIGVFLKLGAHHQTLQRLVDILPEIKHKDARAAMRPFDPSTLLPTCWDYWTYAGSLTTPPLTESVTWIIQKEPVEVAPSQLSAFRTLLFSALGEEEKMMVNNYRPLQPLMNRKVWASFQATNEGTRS

The Ki is a dissociation constant, usually derived from enzyme kinetics or from competition with a known ligand. Higher therefore signals weaker binding. With `NS(=O)(=O)c1cc(C(=O)O)c(NCc2ccco2)cc1Cl` [4-chloro-2-[(furan-2-ylmethyl)amino]-5-sulfamoylbenzoic acid], the Ki on Carbonic anhydrase 7 stood at 513 nM; in assay [1], 499 nM.
